Our source for the IC50 values is patent US10308614B2 (priority 2015, dated 2019).

This assay has as its target His-BRG1 (A1448-S1575; Swiss Prot P51532) (Homo sapiens (Human), UniProt P51532). Type of assay: binding. The conditions noted are these: TR-FRET, His-BRG1 4 nM, biotinylated ligand 40 nM; read-out: BRG1 HTRF IC50. In general terms: In TR-FRET formats the signal depends on donor and acceptor labels being close together.

The IC50 is the concentration that gives 50% inhibition. `Nc1nnc(-c2ccccc2O)cc1N1CC[C@@]2(O)CCCC[C@@H]2C1` (single isomer, unassigned) [Example 84, (trans-4a,8a)-2-(3-amino-6-(2-hydroxyphenyl)pyridazin-4-yl)decahydroisoquinolin-4a-ol]: the IC50 is 8.4 nM.
To `Nc1nnc(-c2ccccc2O)cc1N1CC[C@@]2(O)CCCC[C@@H]2C1` [Example 28, (trans-4a,8a)-2-(3-amino-6-(2-hydroxyphenyl)pyridazin-4-yl)octahydroisoquinolin-4a(2H)-ol] belongs 17.2 nM.
